Only a part is listed here, and it is no random draw. Measured potencies and affinities stand elsewhere. Calls of active or inactive are those of the source.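 The calls were made as follows: active = Decreasing signal and fitted IC50 at most twice the top valid tested dose; inconclusive = Bad fit or a level curve showing 30 to 70% inhibition; inactive = the rest.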
Each compound was assayed against NAD-dependent protein deacylase sirtuin-5, mitochondrial (Homo sapiens) (UniProt Q9NXA8) (assay: sirtuin-5 deacylation blockers, concentration series – biochemical, fluorescence imaging, cherry-pick, set 5, dose response (AID 720591;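 also: 0% = median of neutral control wells and -100% = median of positive control wells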)). Details: Purified SirT5, succinyl-peptide AMC, trypsin-coupled fluorescence; at 15 µM (top of the series).

The chains behind the UniProt entries cited, without tags or fusion partners.
UniProt Q9NXA8, whole entry: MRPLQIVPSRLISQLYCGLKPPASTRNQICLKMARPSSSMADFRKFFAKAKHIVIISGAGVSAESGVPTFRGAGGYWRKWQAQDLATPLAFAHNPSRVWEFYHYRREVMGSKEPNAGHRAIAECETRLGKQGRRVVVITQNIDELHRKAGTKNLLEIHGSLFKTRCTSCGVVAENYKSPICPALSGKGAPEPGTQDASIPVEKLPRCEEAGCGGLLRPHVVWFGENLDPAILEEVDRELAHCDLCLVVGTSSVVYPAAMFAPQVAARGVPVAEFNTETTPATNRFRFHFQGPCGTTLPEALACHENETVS

Row | SMILES | activity change, negative = inhibition
1 | CCCOc1ccc(C(=O)NCC2(N(C)C)CCCCC2)cc1OC | inactive: -26.6%
